uPA generation: inhibitors of cell surface uPA generation | cell surface uPA generation assay, qHTS | Potency, µM (highest dose often 38.3 µM), actives largely listed as inhibitors | 330,000 compounds, 0.31% hits; active = well fitted inhibition curve with a large enough effect; inconclusive = small, poorly fitted or top-dose-only effect; inactive = no such curve, though single readings can be large or run the other way; tested in mouse RAW 264.7 cells; note: nearly all actives have a fitted effect of over 55% in size
TDP1 block: TDP1 (human) enzyme inhibition; Q9NUW8; recombinant TDP1, AlphaScreen DNA substrate cleavage; Potency, µM (highest dose often 130 µM), usual class: inhibitors; 350,000 compounds, 0.28% hits; note: nearly all actives have a fitted effect of over 40% in size
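Recombinant E. coli-expressed Tdp1 (1 nM) preincubated with compound 15 min at RT, then 5'-biotin/3'-phosphotyrosine-FITC DNA substrate (15 nM) added for 5 min. AlphaScreen beads (10 ug/ml) added, 10 min RT; tyrosine-FITC cleavage read as signal loss.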
miR-21 reporter: raises the signal of a miR-21 reporter | HeLa miR-21 FLuc reporter, luciferase, 48 h | Potency, µM (highest dose often 38.3 µM) | 340,000 tested, under 10 active | AID 2288; active = well fitted rising curve with a large enough effect; inconclusive = small, poorly fitted or top-dose-only effect; inactive = no such curve, though single readings can be large or run the other way;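 also: miR-21 action dims this reporter so a rising signal means less miR-21 action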
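HeLa cells endogenously expressing miR-21, stably carrying CMV-driven firefly luciferase with a downstream miR-21 binding site, 2000 cells/well. Titrations up to approximately 40 uM, 48 hours; luciferase luminescence read.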
DT40 TDP1 no CPT: qHTS for Inhibitors of human tyrosyl-DNA phosphodiesterase 1 (TDP1): qHTS in cells in absence of CPT. Potency, µM (doses to about 46.2 µM), hits mostly inhibitors. 420,000 compounds, 15% hits. DT40 Tdp1-/- hTDP1 cells, no CPT, ATP luminescence, 48 h. AID 686978, 2013; note: nearly all actives have a fitted effect of over 55% in size
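Chicken DT40 Tdp1-/- cells stably complemented with human TDP1 were seeded at 400 cells/well with DMSO in place of 20 nM camptothecin. After compound pinning, cells grew at least 48 hr at 37 °C; viability read by CellTiter-Glo luminescence.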
TDP1 cell CPT: growth inhibition of DT40 Tdp1-/-;hTDP1 cells with camptothecin (screen for TDP1 inhibitors); chicken DT40 Tdp1-/-;hTDP1 cells + 20 nM CPT, ATP luminescence, 48 h; Potency, µM (doses to about 46.2 µM), most hits filed as inhibitors; 420,000 compounds, 12% hits; AID 686979; note: nearly all actives have a fitted effect of over 55% in size
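Cell growth measured by CellTiter-Glo luminescence after a minimum 48 h, 37 C compound exposure with 20 nM CPT in Tdp1-knockout DT40 cells stably expressing hTDP1, seeded 400/well; qHTS titration format.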
Hits are given with their value; . = inactive; ? = inconclusive; / = no result given; [ ] = another dose, or the depositor's remark. This is a sample that favours compounds with a hit; in the whole collection about 16% have one here. Unless noted, calls come from the whole dose curve; as a rule, active = well fitted curve in the direction sought with a large enough effect; inconclusive = small, poorly fitted or top-dose-only effect, or another doubt; inactive = no such curve, though single readings can be large; an effect the other way counts as inactive or inconclusive.

SMILES | uPA generation | TDP1 block | miR-21 reporter | DT40 TDP1 no CPT | TDP1 cell CPT
CCn1c(SCC(=O)Nc2nccs2)nnc1-c1ccc(S(=O)(=O)N2CCCCCC2)cc1 | . | . | . | 18µM | 16µM
CCC(Sc1nnc(-c2ccc(C)c(Cl)c2)n1CC)C(=O)Nc1nccs1 (stereo not drawn) | . | . | . | 15µM | 18µM
Cc1ccc(C(=O)N2CCN(c3ccc(NC(=O)COc4ccccc4C)cc3)CC2)cc1 | / | . | . | 5.2µM | 4.1µM
CCC(=O)N1CCN(c2ccccc2NC(=O)COc2ccccc2Cl)CC1 | . | . | . | ? | 23µM
CN1CCN(S(=O)(=O)c2ccc(NC(=O)COc3ccccc3Cl)cc2)CC1 | . | . | . | . | .
Cc1ccc(C(=O)N2CCN(c3ccc(NC(=S)NC(=O)Cc4ccccc4)cc3)CC2)cc1 | / | . | . | ? | 35µM
CCC(=O)N1CCN(c2ccccc2NC(=O)COc2cccc(C)c2)CC1 | . | . | . | . | ?
CN1CCN(c2ccc(NC(=O)COc3ccccc3Cl)cc2)CC1 | . | . | . | 16µM | 16µM
O=C(NCc1nc(-c2ccc(C(F)(F)F)cc2)no1)c1cccs1 | . | . | . | ? | ?
CCc1nnc(NC(=O)CN2CCN(C(=O)c3ccccc3)CC2)s1 | . | . | . | . | .
O=C(CCCN1CCOC(c2ccccc2)C1)c1ccc(F)cc1 (stereo not drawn) | . | . | . | . | .
Cc1cccc(C)c1NC(=S)N1CCCN(C)CC1 | . | . | . | . | .
Cc1ccc2nc(SCC(=O)OCc3ccccc3)nc(=O)n2c1 | . | . | / | . | .
COc1ccccc1OCC(=O)Nc1ccc(N2CCCCC2)cc1 | . | . | . | . | ?
CCC(=O)N1CCN(c2ccc(NC(=O)COc3ccc(C)cc3C)cc2)CC1 | . | . | . | 18µM | ?
CCC(=O)N1CCN(c2ccc(NC(=O)COc3ccccc3Cl)cc2)CC1 | / | . | ? | 26µM | 16µM
CCC(=O)N1CCN(c2ccc(NC(=O)COc3ccccc3[N+](=O)[O-])cc2)CC1 | . | . | . | 10µM | 15µM
Cc1[nH]c(=O)c(C(=O)c2cc(Cl)ccc2O)cc1C(=O)O | . | . | . | . | .
CNC(=O)c1c(NC(=O)c2ccc(S(=O)(=O)N3CCCCC3C)cc2)sc2c1CCC2 (stereo not drawn) | / | . | . | 15µM | 13µM
CNC(=O)c1c(NC(=O)c2ccc(S(=O)(=O)N3CCCCC3)cc2)sc2c1CCN(C(C)C)C2 | . | . | . | ? | ?
CC(C)N1CCc2c(sc(NC(=O)c3ccc(S(=O)(=O)N4CCCCC4C)cc3)c2C(N)=O)C1 (stereo not drawn) | . | . | . | ? | ?
CNC(=O)c1c(NC(=O)c2ccc(S(=O)(=O)N3CCC(C)CC3)cc2)sc2c1CCC2 | / | . | . | 23µM | ?
CC1CCN(C(=O)Cn2cnc3c2c(=O)n(C)c(=O)n3C)c2ccccc2S1 (stereo not drawn) | . | . | . | 18µM | ?
COc1cc(/C=N/NC(=O)Cn2cnc3c2c(=O)n(C)c(=O)n3C)cc(OC)c1OC | . | . | . | . | .
Cn1c(=O)c2c(ncn2CC(=O)N/N=C/C=C/c2ccccc2)n(C)c1=O | . | . | . | . | .
SMILES | uPA generation | TDP1 block | miR-21 reporter | DT40 TDP1 no CPT | TDP1 cell CPT
Cn1c(=O)c2c(ncn2CC(=O)N/N=C/C(Br)=C/c2ccccc2)n(C)c1=O | . | . | . | 3.7µM | 2.3µM
Cn1c(=O)c2c(ncn2CC(=O)N2CCCc3ccccc32)n(C)c1=O | . | . | . | . | .
O=C(Cn1cnc2ccccc21)N/N=C/C(Br)=C/c1ccccc1 | . | . | . | 23µM | 6.5µM
COc1cccc(/C=N/NC(=O)Cn2cnc3c2c(=O)n(C)c(=O)n3C)c1 | . | . | . | ? | 29µM
O=C(NCc1cccnc1)C1CCCN(S(=O)(=O)c2ccc(Br)cc2)C1 (stereo not drawn) | . | . | . | ? | .
COc1ccccc1S(=O)(=O)N(C)C[C@H]1Oc2cc(C#CCC3CCCC3)ccc2S(=O)(=O)N([C@H](C)CO)C[C@H]1C | / | / | / | 8.2µM | 13µM
COc1ccc(S(=O)(=O)N(C)C[C@@H]2Oc3cc(C#CC4CCCCC4)ccc3S(=O)(=O)N([C@@H](C)CO)C[C@@H]2C)cc1 | / | / | / | 18µM | 18µM
COc1ccccc1S(=O)(=O)N(C)C[C@H]1Oc2cc(Br)ccc2S(=O)(=O)N([C@@H](C)CO)C[C@H]1C | / | / | / | 16µM | 29µM
COC(=O)[C@@H]1CCCN1C(=O)[C@H]1C[C@@H]1[C@H](NC(=O)OCc1ccccc1)c1ccccc1 | / | . | / | / | /
CC(C)CN(C(=O)CN1CCN(c2ccc(F)cc2)CC1)c1c(N)n(CC(C)C)c(=O)[nH]c1=O | . | . | . | . | .
Cc1cccc(/C=N/NC(=O)c2ccc(NC(=O)c3cccc(Cl)c3)cc2)n1 | . | / | . | . | .
O=S(=O)(Cc1ccccc1)c1ccccc1-c1nnc(-c2ccccc2)o1 | . | . | . | 16µM | 16µM
O=S(=O)(Cc1ccc(Cl)cc1)c1ccccc1-c1nnc(-c2ccc(Cl)cc2)o1 | . | . | . | ? | ?
Cc1ccc(-c2nnc(-c3ccccc3S(=O)(=O)Cc3ccc(Cl)cc3)o2)cc1 | . | . | . | 23µM | ?
COCc1ccc(CN2Cc3ccccc3OC(c3ccccc3F)C2)o1 (stereo not drawn) | / | / | / | . | .[9.04 µM]
COc1ccc(NC(=O)CCN2C(=O)c3ccccc3S2(=O)=O)c(OC)c1 | . | . | . | . | .
CN(C)C(CN1C(=O)C2CC=CCC2C1=O)c1cn(C)c2ccccc12 (stereo not drawn) | . | . | . | . | .
CCSc1ncc(Cl)c(C(=O)N(Cc2ccccc2Cl)C2CCS(=O)(=O)C2)n1 (stereo not drawn) | / | . | . | 15µM | 18µM
CC(C)Sc1ncc(Cl)c(C(=O)N(Cc2ccc(F)cc2)C2CCS(=O)(=O)C2)n1 (stereo not drawn) | / | . | . | 23µM | ?
CSc1ncc(Cl)c(C(=O)N(Cc2ccccc2Cl)C2CCS(=O)(=O)C2)n1 (stereo not drawn) | / | . | . | . | .
CSc1ncc(Cl)c(C(=O)N(Cc2ccc(C(C)C)cc2)C2CCS(=O)(=O)C2)n1 (stereo not drawn) | / | . | . | ? | ?
CCCOc1ccc(CN(C(=O)c2nc(SC(C)C)ncc2Cl)C2CCS(=O)(=O)C2)cc1 (stereo not drawn) | / | . | . | 15µM | ?
O=C(CN1C(=O)C(=O)N(C2CCCC2)C1=O)Nc1ccc([N+](=O)[O-])cc1 | . | . | / | . | .
O=C1C(=O)N(CCN2CCOCC2)C(c2cccc(Cl)c2)/C1=C(\O)c1ccc2c(c1)OCCO2 (stereo not drawn) | . | . | . | . | .

Screening results from PubChem.
